Experimental melting point values from OPERA 2.9

Source: data files of OPERA 2.9 (Mansouri et al.), github.com/kmansouri/OPERA.

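These are experimental values that the OPERA curators gathered from public databases to train and test their QSAR models. A listed value is a point estimate from one report or more. How each value was measured is not recorded, so precision varies. Where a salt, mixture or single isomer is drawn, the source does not say that exactly this form was tested. Some upstream entries may be estimates or bounds without being marked so.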

The melting point is given in degrees Celsius. "via" names the databases from which the curators took the value.

Listed for O=C1C=CC(=NC2=NNNS2)C=C1: MP 160 °C (via OCHEM). Listed for O=C(O)C1(c2cccc(F)c2)CCC1: MP 68 °C (via OCHEM). Listed for NC(=S)Cc1nc2ccccc2[nH]1: MP 206 °C (via OCHEM). The entry for O=C(O)c1cc2c(s1)-c1ccccc1OC2 lists MP 237 °C (via OCHEM).

The entry for COc1ccc(S(=O)(=O)Cl)cc1NC(C)=O lists MP 146 °C (via OCHEM). COc1cccc(-c2nc(C=O)cs2)c1 has MP 93 °C (via OCHEM). Listed for COc1ccc(Oc2ccc(C=O)cc2[N+](=O)[O-])cc1: MP 68 °C (via OCHEM). COc1ccc(-c2nc(C=O)cs2)cc1 is reported with MP 98 °C (via OCHEM).

O=C1CC2(CCCCC2)C(=O)N1 is reported with MP 136 °C (via OCHEM). Nc1cccc(C(F)(F)F)c1Cl has MP 26.5 °C (via OCHEM). The entry for CO/N=C(\C(=O)Sc1nc2ccccc2s1)c1csc(N)n1 lists MP 128.7 °C (via eChemPortal). For CN1C(=O)CC(C(=O)O)c2ccccc21 (stereo not given) the data give MP 163 °C (via OCHEM).

For COc1ccccc1NC(=O)CC#N the data give MP 88.5 °C (via OCHEM). The entry for O=C1COc2cc(C(=O)O)ccc2N1 lists MP 322 °C (via OCHEM). O=C(O)CNS(=O)(=O)Cc1ccccc1 is reported with MP 154 °C (via OCHEM). Listed for COc1cc(C=O)ccc1OCC#N: MP 76 °C (via OCHEM).

O=C1CCCc2[nH]c(=O)c(C(=O)O)cc21 has MP 290 °C (via OCHEM). For Nc1cnc(-c2ccccc2)nc1 the data give MP 82 °C (via OCHEM). Listed for CCOC(=O)c1cnn2c1nc(Cl)c1ccccc12: MP 130 °C (via OCHEM). The entry for Nc1nc(SCc2ccccc2)ns1 lists MP 105 °C (via OCHEM).

Cc1sc2ncnc(NN)c2c1C has MP 209 °C (via OCHEM). CC(C)Cc1ccc(-c2csc(N)n2)cc1 is reported with MP 109 °C (via OCHEM). The entry for CC(C=CC=C(C)C=C[C@H]1C(C)=C[C@H](O)CC1(C)C)=CC=CC=C(C)C=CC=C(C)[C@H]1C=C2C(C)(C)C[C@H](O)C[C@@]2(C)O1 lists MP 184 °C (via OCHEM). The entry for Cn1nc(Br)c(=O)n(C)c1=O lists MP 96 °C (via OCHEM).

The entry for COc1cc(C=O)c([N+](=O)[O-])cc1OCc1ccccc1 lists MP 131 °C (via OCHEM). The entry for Cc1nc2ccccn2c1C(=O)NN lists MP 189 °C (via OCHEM). Listed for C=C/C=C/CC: MP -102 °C (via OCHEM). The entry for O=Cc1ccccc1OCc1ccccn1 lists MP 74 °C (via OCHEM).

For CCC(F)(F)C(F)(F)C(F)(F)C(F)(F)C(F)(F)C(F)(F)C(F)(F)C(F)(F)F the data give MP -37.7 °C (via ChemicalBook). CC(=O)c1c(C)nc2ccccc2c1N has MP 153 °C (via OCHEM). Listed for CCCOc1ccc(C=O)cc1OCC: MP 37 °C (via OCHEM). O=c1nn[nH]n1-c1cccs1 has MP 152 °C (via OCHEM).

S=c1[nH]nc(NCCc2ccccc2)s1 is reported with MP 144 °C (via OCHEM). For O=C(O)CCOc1ccc([N+](=O)[O-])cc1 the data give MP 117 °C (via OCHEM). For CC(C)c1ccc(C=NO)cc1 the data give MP 65 °C (via OCHEM). For O=C(O)C1(c2cccc(Cl)c2)CCC1 the data give MP 102 °C (via OCHEM).

5 of these entries, quoted again:

O=C(O)C1(c2cccc(Cl)c2)CCC1 is reported with MP 102 °C (via OCHEM).
O=C(O)CNS(=O)(=O)Cc1ccccc1 is reported with MP 154 °C (via OCHEM).
O=c1nn[nH]n1-c1cccs1 is reported with MP 152 °C (via OCHEM).
O=C1C=CC(=NC2=NNNS2)C=C1 is reported with MP 160 °C (via OCHEM).
O=C1CCCc2[nH]c(=O)c(C(=O)O)cc21 is reported with MP 290 °C (via OCHEM).